Experimental data published in patent US20140090094A1, “MODULATORS OF SLC22A7” (BAYER INTELLECTUAL PROPERTY GmbH, priority 2011, published 2014).

Target: T1, OAT2r (Rattus norvegicus, UniProt Q5RLM2)
T1 construct: expressed in transfected cells
T1 sequence (Q5RLM2 1-535): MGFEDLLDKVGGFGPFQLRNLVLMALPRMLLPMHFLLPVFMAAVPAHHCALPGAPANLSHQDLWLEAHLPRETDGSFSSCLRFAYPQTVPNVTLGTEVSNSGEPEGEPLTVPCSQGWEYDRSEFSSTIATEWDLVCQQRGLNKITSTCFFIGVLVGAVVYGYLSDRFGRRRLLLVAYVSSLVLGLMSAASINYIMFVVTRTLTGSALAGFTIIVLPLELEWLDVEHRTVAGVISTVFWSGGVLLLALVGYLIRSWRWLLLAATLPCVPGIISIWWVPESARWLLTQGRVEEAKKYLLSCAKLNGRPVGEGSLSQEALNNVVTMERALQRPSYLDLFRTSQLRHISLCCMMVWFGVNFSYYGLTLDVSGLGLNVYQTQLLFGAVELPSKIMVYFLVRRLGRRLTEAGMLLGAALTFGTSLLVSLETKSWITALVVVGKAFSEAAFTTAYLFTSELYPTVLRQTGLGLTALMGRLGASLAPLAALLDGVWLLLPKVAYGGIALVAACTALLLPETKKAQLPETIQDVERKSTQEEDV
Assay: trans-stimulation of efflux of 3H-orotic acid via OAT2r
Format: cell-based
Conditions: 1 mmol/l compound in uptake buffer, 1 min, preloaded cells

2-oxoglutarate
trans-stimulation of efflux of 3H-orotic acid (in words): rejects
